The text on this data set:
At pH 4 and 5, 0.1 M citrate buffers were used, while for pH 6, 7 and 8a set of 0.1 M phosphate buffers were used. Each buffer also contained 0.2 M NaCl. No cosolvents or other potentially solubilizing components were included. Buffer preparations were subdivided in order to individually test the solubility of only one material in a given buffer sample.

From patent US9670200B2, “Quaternary ammonium salt prodrugs” (Alkermes Pharma Ireland Limited, priority 2010, dated 2017) come the findings set out here.

Regarding `Cc1cc2c(s1)=Nc1ccccc1NC=2N1CCN(C)CC1` [olanzapine base, 2-methyl-4-(4-methyl-1-piperazinyl)-10H-thieno[2,3-b][1,5]benzodiazepine], the “variation in solubility across the pH range studied” value is on record as over 1000 fold.
